Binding of CDR-mutated scFvs to a peptide of the spike HR2 region

All variants were tested on one target, the spike HR2 peptide PDVDLGDISGINAS (SARS-CoV-2).

Ab-14 is the parent antibody, in scFv form: VH, then a (GGGGS)3 linker, then VL. The heavy chain is unchanged in all variants.
VH: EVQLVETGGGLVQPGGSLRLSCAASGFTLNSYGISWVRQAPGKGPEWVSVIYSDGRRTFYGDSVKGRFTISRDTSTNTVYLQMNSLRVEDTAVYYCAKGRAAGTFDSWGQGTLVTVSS
VL: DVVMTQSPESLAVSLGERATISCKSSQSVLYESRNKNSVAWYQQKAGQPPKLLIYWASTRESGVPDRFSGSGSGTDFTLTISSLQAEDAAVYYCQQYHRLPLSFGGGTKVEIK

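The parent was found by panning a naive human phage display library on the peptide. Variants in AAYL50 differ from the parent at up to three CDR positions; double and triple changes were sampled at random. Affinity was read by AlphaSeq, a pooled yeast mating assay with surface-displayed partners. The frequency of each diploid, read from paired DNA barcodes, reflects how well the two displayed proteins bind. Read counts were normalised to the haploid input and turned into Kd by a linear fit to BCL2-family pairs of known affinity, for each replicate. There are three technical replicates.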

Sequences are complete VL domains.
Scale: log10 of Kd in nM, estimated from mating counts; low values are strong binders.
The mean shown is taken over the replicates in which the pair was detected.
A pair that was not seen in any replicate is written "no signal"; this usually means weak binding, but a binder can also be missed.
Background: pairings of library AAYL50 with three empty control strains gave a value in 18% of cases (median 4.19, 5th percentile 2.99). Values in that range, when seen in few replicates, are hard to tell from nonspecific mating.
For reference, the parent read 0.65 as the reference entry and 1.68 as a member of this library.

VL	mean, log10 nM	seen in
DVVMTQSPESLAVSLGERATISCVSSQSVLYESRNKNSSAWYQQKAGQPPKLLIYWAFTRESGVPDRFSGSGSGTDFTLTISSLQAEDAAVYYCQQYHRLPLSFGGGTKVEIK	no signal	0 of 3
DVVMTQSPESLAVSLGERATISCKSSQSCDYESRNKNSVAWYQQKAGQPPKLLIYWASTRESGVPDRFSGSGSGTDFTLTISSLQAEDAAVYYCQWYHRLPLSFGGGTKVEIK	1.05	3 of 3
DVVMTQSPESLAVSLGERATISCKSSQSVLYESRNKNHVAWYQQKAGQPPKLLIYDASTRESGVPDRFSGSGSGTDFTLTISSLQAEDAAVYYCQQYHRLPLSFGGGTKVEIK	0.11	3 of 3
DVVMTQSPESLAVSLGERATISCKSSQSVLYESRMKNVVAWYQQKAGQPPKLLIYWASTRESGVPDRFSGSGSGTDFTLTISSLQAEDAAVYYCQQYHRLPYSFGGGTKVEIK	no signal	0 of 3
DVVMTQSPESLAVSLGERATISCKSSQSVLYESREANSVAWYQQKAGQPPKLLIYWASTRESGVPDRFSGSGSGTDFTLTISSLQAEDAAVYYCQQYHRLPLEFGGGTKVEIK	0.70	3 of 3
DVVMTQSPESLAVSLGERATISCKSSQSVLYESRNKNSVAWYQQKAGQPPKLLIYWTSPRESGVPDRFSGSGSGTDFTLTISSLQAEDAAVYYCQQCHRLPLSFGGGTKVEIK	no signal	0 of 3
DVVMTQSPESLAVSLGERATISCKSSESVNYESRNKNSVAWYQQKAGQPPKLLIYWASTRESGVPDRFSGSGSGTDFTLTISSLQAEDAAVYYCQQWHRLPLSFGGGTKVEIK	3.44	1 of 3
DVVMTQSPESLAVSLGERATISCKSSQSVLYEIRNKNSVSWYQQKAGQPPKLLIYWASTREYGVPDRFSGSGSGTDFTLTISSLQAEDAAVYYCQQYHRLPLSFGGGTKVEIK	no signal	0 of 3

Second part, the sequence after the result:

mean, log10 nM	seen in	VL
3.92	1 of 3	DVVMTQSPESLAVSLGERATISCKSSQSVLFESRNSNSVAWYQQKAGQPPKLLIYWASTRESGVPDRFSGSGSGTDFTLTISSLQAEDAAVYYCQQYHRLPPSFGGGTKVEIK
4.95	1 of 3	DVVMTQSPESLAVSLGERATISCKQSQSVLYESRNKNSVGWYQQKAGQPPKLLIYWAYTRESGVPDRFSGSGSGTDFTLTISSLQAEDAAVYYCQQYHRLPLSFGGGTKVEIK
no signal	0 of 3	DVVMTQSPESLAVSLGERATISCKSEQSVLYESRNKNSVIWYQQKAGQPPKLLIYWASTRESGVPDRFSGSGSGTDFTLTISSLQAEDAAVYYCQQYDRLPLSFGGGTKVEIK
4.46	3 of 3	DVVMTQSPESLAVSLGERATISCFSSQSVLYESRNKNSVAWYQQKAGQPPKLLIYWASARESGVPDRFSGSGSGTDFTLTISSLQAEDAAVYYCQQYHRLPLSFGGGTKVEIK
2.16	3 of 3	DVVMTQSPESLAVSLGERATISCRSSQSVLYESRNNNSVAWYQQKAGQPPKLLIYWASTRESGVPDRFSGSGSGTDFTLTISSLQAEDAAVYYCQQYHRTPLSFGGGTKVEIK
2.37	3 of 3	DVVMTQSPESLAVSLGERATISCVSSQSVLYESRNKFSVAWYQQKAGQPPKLLIYWASTRESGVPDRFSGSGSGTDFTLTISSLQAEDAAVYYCVQYHRLPLSFGGGTKVEIK
no signal	0 of 3	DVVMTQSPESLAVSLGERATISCKSSQSVFYESRNKNSVAWYQQKAGQPPKLLIYWAFTRESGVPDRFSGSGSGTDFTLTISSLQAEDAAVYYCQQYHRLELSFGGGTKVEIK
3.18	1 of 3	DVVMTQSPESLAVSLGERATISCKSSQSVKYRSRNKNSVAWYQQKAGQPPKLLIYWASTRESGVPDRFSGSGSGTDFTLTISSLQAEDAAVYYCQQYVRLPLSFGGGTKVEIK

For reference, 2 entries of the list once more:

{"VL": "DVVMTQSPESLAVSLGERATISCKQSQSVLYESRNKNSVGWYQQKAGQPPKLLIYWAYTRESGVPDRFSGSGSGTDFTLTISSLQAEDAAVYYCQQYHRLPLSFGGGTKVEIK", "mean, log10 nM": "4.95", "seen in": "1 of 3"}
{"VL": "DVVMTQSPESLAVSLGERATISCKSSQSVLYEIRNKNSVSWYQQKAGQPPKLLIYWASTREYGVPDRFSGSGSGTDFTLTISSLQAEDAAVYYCQQYHRLPLSFGGGTKVEIK", "mean, log10 nM": "no signal", "seen in": "0 of 3"}

Data: MIT Lincoln Laboratory AlphaSeq set, Engelhart et al. 2022, doi:10.1038/s41597-022-01779-4, as distributed in FLAb.